{
  "source": "paper PMC8932640",
  "about": "(Advanced therapeutics, 2021)",
  "test_system": "U87MG cells",
  "experiment": "Validation of intracellular ligation",
  "assay_type": "cell-based",
  "conditions": "control group: cells treated with colchicine before incubation with RGD-photo-ODIBO; UV irradiation",
  "data": [
    {"substance": "Cetuximab-coumarin-N3: Cetuximab functionalized with coumarin-N3; mimics Cetuximab-TCO", "values": [
      {"measurement": "fluorescence signal under the FITC channel", "value": "no significant fluorescence signal"}
    ]}
  ]
}
